Series [1] deals with NCI-N87 human gastric carcinoma (HER2 overexpressing) xenografts. As to the kind of experiment: refractory T-mab/P-mab model Step I. It counts as in vivo, male nude mice (BALB/cAJcl-mu/mu). Particulars: 20 mg/kg/day (each) ip Days 1, 8, 15.
For series [2], the system named is NCI-N87 tumor fragment #6, clone 3. As to the kind of experiment: refractory T-DM1 monoclonal cell line model, comparison to DS-8201a. The series is classed as in vivo, male mice. How it is done: Refractory T-DM1 NCI-N87 human gastric carcinoma tumor fragments #6 were obtained in the same manner as described above, and then the monoclonal cell line, NCI-N87 tumor fragment #6, clone 3 was isolated by passages in vitro. The obtained cell line was implanted into BALB/cAJcl-mu/nu male mice (8.0×10^6 cells in 100 μL of PBS/mouse, subcutaneous) for the efficacy test.
The tumor volumes (TV, mm) and body weights of the mice were recorded.

Series [3] deals with NCI-N87 parental cell xenografts. Conditions: single dosing of 1 mg/kg or more; cited from earlier work.

As to trastuzumab [T-mab], the “RTV (mean ± SE)” value in series [1] (Day 22 to Day 0 (Step I)) is recorded as 2.5. This substance yielded a T/C in series [1] (Step I Day 22, vs non-treatment control) of 47.9%. Moreover, in series [1] (Step I Day 22), the “Number of Death” value is given as 0 and the “TV (mean ± SE)” value worked out at 772.9 mm^3.
Take trastuzumab deruxtecan [DS-8201a]: the “antitumor effect (tumor volume)” value in series [2] (single iv dose of 1 mg/kg) is “failing to inhibit tumor growth”; in series [2] (single iv dose of 10 mg/kg DS-8201a), “tumor regression”. For the same substance, the antitumor effect entry in series [3] is given as “tumor regression”.

These data come from patent publication US20240238300A1, “TREATMENT METHODS FOR SUBJECTS WITH CANCER HAVING AN ABERRATION IN EGFR AND/OR HER2” (TAIHO PHARMACEUTICAL CO., LTD., priority 2021, published 2024).
